# logP (octanol/water) values, as collected for the OPERA models

Source: data files of OPERA 2.9 (Mansouri et al.), github.com/kmansouri/OPERA.

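The OPERA project collected these measurements from public sources as training and test data for property models. One number stands for a compound and property, with no spread given. How each value was measured is not recorded, so precision varies. A value may pool stereoisomers or salt forms, and the file does not say which form was measured. Some entries may be limits or estimates that an upstream database listed as plain numbers.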

logP is the log10 of the octanol-water partition coefficient; higher is more lipophilic.
"–" marks a cell with nothing listed here.

| compound | name | logP |
|---|---|---|
| CCCCC1CCCC(=O)O1 (stereo not given) | 2H-Pyran-2-one, 6-butyltetrahydro- | 2.4 |
| O=C1c2ccccc2-c2ccc3c4ccc5c6c(ccc(c7ccc1c2c73)c64)C(=O)c1ccccc1-5 | Vat Blue 20 | 2.1 |
| CCOC(=O)c1ccnc(C(=O)OCC)c1 | Diethyl pyridine-2,4-dicarboxylate | 1.92 |
| C=COCC(C)C | Vinyl isobutyl ether | 3.085 |
| CC(=O)OCC1CCC(C)=CC1C (stereo not given) | 2,4-Dimethylcyclohex-3-ene-1-methyl acetate | 4.2 |
| CN1CCNCC1 | 1-Methylpiperazine | -0.57 |
| CCCCCCCCCCCC[N+](C)(C)CC(=O)[O-] | – | 0.07 |
| C=CCCCCCCCC(=O)OC | methyl 9-decenoate | 4.6 |
| CC(C)(O)C(=O)c1ccccc1 | 2-Hydroxy-2-methylpropiophenone | 1.62 |
| CCN(CCO)c1ccc(/N=N/c2sc3cc(OC)ccc3[n+]2C)cc1.COS(=O)(=O)[O-] | C.I. Basic Blue 41 | -1.6 |
| NCCC(O)(P(=O)(O)O)P(=O)(O)O | Pamidronic acid | -4.7 |
| CCOC(=O)C(C)C(Br)CBr (stereo not given) | Ethyl 3,4-dibromo-2-methylbutyrate | 3 |
| C/C=C/C(=O)OC(CC)C(C)C (stereo partly drawn) | 2-Butenoic acid, 1-ethyl-2-methylpropyl ester, (2E)- | 3.75 |
| O=C(Nc1ccnc(=O)[nH]1)c1ccccc1 | N4-Benzoylcytosine | 0.9 |
| Cc1ccc(N)c(Cl)c1 | 2-Chloro-4-methylaniline | 2.58 |
| CC(C)(C)CC(C)(C)c1cc(O)c(C(C)(C)CC(C)(C)C)cc1O | 2,5-Bis(1,1,3,3-tetramethylbutyl)hydroquinone | 4.87 |
| O=C1NCCN1 | Ethylene urea | -0.95 |
| CC(C)CC1(C)OCC(CO)O1 (stereo not given) | 1,3-Dioxolane-4-methanol, 2-methyl-2-(2-methylpropyl)- | 1.57 |
| CCCCOc1cccc(F)c1F | 1-Butoxy-2,3-Difluorobenzene | 4 |
| O=S(=O)(O)CCN(CCO)CCO | Ethanesulfonic acid, 2-[bis(2-hydroxyethyl)amino]- | -3.59 |
| O=C1CC(Cl)C(=O)N1c1ccccc1 (stereo not given) | 3-Chloro-1-phenylpyrrolidine-2,5-dione | -0.36 |
| C/C(=C\C[P+](c1ccccc1)(c1ccccc1)c1ccccc1)C1OCC(C)(C)CO1.[Cl-] | – | -0.89 |
| C[Si](C)(C)O[Si](C)(C)O[Si](C)(C)O[Si](C)(C)O[Si](C)(C)O[Si](C)(C)O[Si](C)(C)O[Si](C)(C)O[Si](C)(C)C | Eicosamethylnonasiloxane | 8.3 |
| CC1=NN(c2cccc(S(=O)(=O)[O-])c2)C(=O)C1/N=N/c1cc(Cl)c(Cl)cc1S(=O)(=O)[O-].[Ca+2] (stereo partly drawn) | – | -0.9 |
| CC(=O)[C@@]1(O)CC[C@H]2[C@@H]3C=CC4=CC(=O)C=C[C@]4(C)[C@H]3CC[C@@]21C | 17-Hydroxy-1,4,6-pregnatriene-3,20-dione | 2.23 |
| CCOC(=O)CNC(=O)COC(=O)c1ccccc1OC(C)=O | – | 0.99 |
| O=S(=O)([O-])c1cc([O-])c(/N=N/c2c([O-])ccc3ccccc23)c2ccccc12.O=S(=O)([O-])c1cc([O-])c(/N=N/c2c([O-])ccc3ccccc23)c2ccccc12.[Cr+3].[H+].[Na+].[Na+] | C.I. Acid Blue 193 | -1.01 |
| O=COCc1ccccc1 | Formic acid, phenylmethyl ester | 1.79 |
| CC(C)n1c(/C=C/[C@@H](O)C[C@@H](O)CC(=O)O)c(-c2ccc(F)cc2)c2ccccc21 | Fluvastatin | 4.5 |
| Nc1ccc(S(=O)(=O)O)cc1S(=O)(=O)O | 1,3-Benzenedisulfonic acid, 4-amino- | -0.959 |
| COC(=O)c1cc(S(N)(=O)=O)ccc1S(=O)(=O)CCCO | Methyl 2-(3-hydroxypropylsulfonyl)-5-sulfamoylbenzoate | -0.3 |
| C=CC(C)(C)O | 2-Methyl-3-buten-2-ol | 0.66 |
| CC(C)CCC(C)Nc1ccc(N)cc1 (stereo not given) | 1,4-Benzenediamine, N1-(1,4-dimethylpentyl)- | 3.5 |
| O=C1CCCCCN1C(=O)Nc1ccc(Cc2ccc(NC(=O)N3CCCCCC3=O)cc2)cc1 | – | 5 |
| CC1Cc2ccccc2N1NC(=O)c1ccc(Cl)c(S(N)(=O)=O)c1 (stereo not given) | Indapamide | 2.2 |
| CCCCCN(C)CCC(O)(P(=O)(O)O)P(=O)(O)O | Ibandronic acid | -2.1 |
| O=C(O)c1ccc(NC(=O)[C@H](Cc2ccc(O)cc2)NC(=O)c2ccccc2)cc1 | Bentiromide | 3.3 |
| CN=c1oc2c(n1C)CCCC2 | – | 1.93 |
| CCOCC[N+](C)(C)C.[I-] | 2-Ethoxy-N,N,N-trimethylethan-1-aminium iodide | -2.22 |
| FC(F)(F)c1nc2ccncc2[nH]1 | 2-(Trifluoromethyl)-3H-imidazo[4,5-c]pyridine | 0.94 |
| C=C1C(O)CC2CC1C2(C)C (stereo not given) | Bicyclo[3.1.1]heptan-3-ol, 6,6-dimethyl-2-methylene- | 3.2 |
| COC(=O)c1ccc(C(=O)Nc2cc(Cl)ccc2Cl)cc1[N+](=O)[O-] | – | 3.8 |
| COc1cc(-c2ccc(N=NC(C(C)=O)C(=O)Nc3ccccc3)c(OC)c2)ccc1N=NC(C(C)=O)C(=O)Nc1ccccc1 (stereo not given) | C.I. Pigment Orange 16 | 0.8 |
| O=c1[nH]sc2ccccc12 | 1,2-Benzisothiazolin-3-one | 0.76 |
| CC(O)C(C)Cc1ccccc1 (stereo not given) | 3-Methyl-4-phenyl-2-butanol | 3.1 |
| CCn1c(O)c(N=Nc2ccc(C(=O)OCCOCCOC)cc2)c(C)c(C#N)c1=O | – | 4.7 |
| COc1cc(Cl)c(OC)cc1N | 2,5-Dimethoxy-4-chloroaniline | 1.93 |
| Cc1ccc(/N=N/c2c(O)c(C(=O)[O-])cc3ccccc23)c(S(=O)(=O)[O-])c1.[Ca+2] | C.I. Pigment Red 57, calcium salt (1:1) | 0.795 |
| CC(C)N(c1nn(C)/c(=N\N=C2C=CC(=[N+](C)C)C=C2)s1)C(C)C.COS(=O)(=O)[O-] | – | -0.399 |
| COC(=O)/C=C(\C)N[C@@H](C(=O)[O-])C(C)C.[K+] | – | -2.23 |
| N[C@@H](C(=O)N[C@@H]1C(=O)N2C(C(=O)O)=C(Cl)CC[C@H]12)c1ccccc1 | – | 0.5 |
| CN(C)c1nc(=O)nc(N(C)C)[nH]1 | 4,6-Bis(dimethylamino)-1,3,5-triazin-2(1H)-one | 2.29 |
| CC(C)(C)OC(=O)N[C@H](C(=O)O)C12CC3CC(CC(O)(C3)C1)C2 | – | 0.55 |
| OC1CCCCCCCCCCC1 | Cyclododecanol | 4.18 |

The first 5 entries again:

{"smiles": "CCCCC1CCCC(=O)O1", "stereo": "stereo not given", "name": "2H-Pyran-2-one, 6-butyltetrahydro-", "logP": "2.4"}
{"smiles": "O=C1c2ccccc2-c2ccc3c4ccc5c6c(ccc(c7ccc1c2c73)c64)C(=O)c1ccccc1-5", "name": "Vat Blue 20", "logP": "2.1"}
{"smiles": "CCOC(=O)c1ccnc(C(=O)OCC)c1", "name": "Diethyl pyridine-2,4-dicarboxylate", "logP": "1.92"}
{"smiles": "C=COCC(C)C", "name": "Vinyl isobutyl ether", "logP": "3.085"}
{"smiles": "CC(=O)OCC1CCC(C)=CC1C", "stereo": "stereo not given", "name": "2,4-Dimethylcyclohex-3-ene-1-methyl acetate", "logP": "4.2"}